Values joined by “and” are separate entries in the source; they are usually repeats but may differ in a detail not shown here. Equal values may be shown once. The entries are a selection whose mix differs from that of the whole data set. Inconclusive results are not listed. Active and inactive are the calls of the source. Calls come from the whole dose curve; as a rule, active = well fitted inhibition curve with a large enough effect; inconclusive = small, poorly fitted or top-dose-only effect; inactive = no such curve, though single readings can be large or run the other way.
Assay: qHTS Assay for Inhibitors of the ERK Signaling Pathway using a Homogeneous Screening Assay; note: nearly all actives have a fitted effect of over 55% in size
Settings: HEK293-V1b, vasopressin-stimulated pERK AlphaScreen; at 57.5 µM (top of the series) unless noted
% is set by controls: 0 for no effect and ±100 for the full control effect.

| Structure (SMILES) | activity, negative = inhibition |
| --- | --- |
| CCOP1(=S)c2c(C)nn(CCC#N)c2N=C(c2ccc(F)cc2)N1C (centres undefined) | inactive: -10.4% |
| O=P(Nc1nccs1)(c1ccccc1)c1nc2ccccc2s1 (centres undefined) | inactive: -5.13% |
| CCOP1(=S)c2c(C)nn(CCC#N)c2N=C(c2ccccc2F)N1C (centres undefined) | inactive: 9.66% |
| O=[As](O)(O)c1ccc([As](=O)(O)O)cc1 | inactive: 14.7% [at 11.5 µM] |
| NS(=O)(=O)Cc1ccc([As](=O)(O)O)cc1 | inactive: -4.37% [at 11.5 µM] |
| O=C(CC(=O)c1ccccc1)O[C@H]1CN2CCC1CC2 | inactive: -6.66% [at 11.5 µM] |
| CN(C(=O)Cc1ccc(Cl)c(Cl)c1)[C@@H]1CC[C@@]2(CCCO2)C[C@H]1N1CCCC1 | inactive: 5.88% |
| CN(C(=O)Cc1ccc(Cl)c(Cl)c1)[C@@H]1CCCC[C@H]1N1CCCC1 | inactive: 9.84% [middle of 4 runs] |
| CN(CCCl)Cc1cc(Cl)c(NC2=NCCN2)c(Cl)c1 | inactive: 7.91% |
| O=P1(Nc2ccccn2)COc2ccccc2OC1 | inactive: -24.8% |
| Clc1n[nH]nc1-c1nn[nH][15n]1 | inactive: -4.53% |
| O=P1(Nc2ncccn2)COc2ccccc2OC1 | inactive: -13.4% |
| O=P1(Nc2ccc(Br)cn2)COc2ccccc2OC1 | inactive: 49% |
| Cc1nn(-c2ccccc2)c2c1P(=O)(N1CCOCC1)N(C)C(c1ccccc1)=N2 (centres undefined) | inactive: 9.75% |
| CN(N=O)C(=N)N[N+](=O)[O-] | inactive: 6.19% |
| COP1(=S)c2c(C)nn(CCC#N)c2N=C(c2ccc(F)cc2)N1C (centres undefined) | inactive: -4.06% |
| O=C(COc1ccccc1)OC1CN2CCC1CC2 (centres undefined) | inactive: -13% |
| O=C(O)[C@@H](O)c1ccc([As](=O)(O)O)cc1 | inactive: -5.58% [at 11.5 µM] |
| O=C(OC1CN2CCC1CC2)C12CC3CC(CC(C3)C1)C2 (centres undefined) | inactive: -8.47% |
| NC(=O)Nc1cc([As](=O)(O)O)cc(I)c1O | inactive: -21.7% [at 11.5 µM] |

| Structure (SMILES) | activity, negative = inhibition |
| --- | --- |
| [N-]=[N+]=NCC(N)=O | inactive: -11.3% [at 11.5 µM] |
| O=[As]c1ccc(S(=O)(=O)NCCO)cc1 (centres undefined) | inactive: 24.9% [at 11.5 µM] |
| [N-]=[N+]=NCC(O)CN=[N+]=[N-] (centres undefined) | inactive: 0.805% [at 11.5 µM] |
| C(Cc1nn[nH]n1)c1nn[nH]n1 | inactive: -8.14% [at 11.5 µM] |
| CN(C(=O)Cc1ccc(Cl)c(Cl)c1)[C@H]1CCCC[C@@H]1N1CCCC1 | inactive: 19.7% and inactive: 7.26% and inactive: 19.4% |
| NCC[C@@H](N)CSP(=O)(O)O | inactive: 2.86% [at 11.5 µM] |
| O=[N+]([O-])c1ccc(C[As](=O)(O)O)cc1 | inactive: -16.3% [at 11.5 µM] |
| O=C(CO)Nc1ccc([As](=O)(O)O)cc1 | inactive: 4.14% [at 11.5 µM] |
| CCc1nc2c(n1)c1c(non1O)c1c2no[n+]1[O-] | inactive: 13.8% |
| CN(C(=O)Cc1ccccc1)[C@@H]1CC[C@@]2(CCCO2)C[C@H]1N1CCCC1 | inactive: 19.2% |
| O=C(OC1CN2CCC1CC2)c1cccc(Cl)c1 (centres undefined) | inactive: -19% |
| Cc1cc([N+](=O)[O-])cc([N+](=O)[O-])c1O | inactive: -14.4% |
| [N-]=[N+]=Nc1ccc([As](=O)(O)O)cc1 | inactive: 6.74% [at 11.5 µM] |
| CN1CCC[C@H](OC(=O)C(c2ccccc2)c2ccccc2)C1 | inactive: 3.77% [at 11.5 µM] |
| C[C@@H](O)COc1ccc([As](=O)(O)O)cc1N | inactive: -20.3% [at 11.5 µM] |
| O=P(Nc1nccs1)(c1ccccc1)c1ccccc1 | inactive: 3.17% |
| c1nnnn1CCn1cnnn1 | inactive: 12.5% |
| O=P1(Nc2nc3ccc(Cl)cc3s2)COc2ccccc2O1 (centres undefined) | inactive: -19.8% |
| COC(=O)c1cc2c(s1)N=C(c1ccccc1)N(C)P2(=O)N1CCOCC1 (centres undefined) | inactive: 5.77% |
